Source: US7276248B2, “Conjugate having a cleavable linkage for use in a liposome” (ALZA Corporation, priority 1999, dated 2007)

System: M109 cells, a mouse lung carcinoma line
Test: In vitro cytotoxicity / growth rate of M109 cells, methylene blue staining, 72 hour continuous exposure
Settings: cysteine 150, 500, 1000 μM

CO[C@@]12[C@H](COC(N)=O)C3=C(C(=O)C(C)=C(N)C3=O)N1C[C@@H]1N[C@@H]12 [free MMC, mitomycin C]
effect of cysteine on cytotoxicity / cell growth rate: no effect
